{"sequences": {"note": "The chains behind the UniProt entries cited, without tags or fusion partners. Residues count along the entry.", "UniProt P00797, 67-406 limits assumed": "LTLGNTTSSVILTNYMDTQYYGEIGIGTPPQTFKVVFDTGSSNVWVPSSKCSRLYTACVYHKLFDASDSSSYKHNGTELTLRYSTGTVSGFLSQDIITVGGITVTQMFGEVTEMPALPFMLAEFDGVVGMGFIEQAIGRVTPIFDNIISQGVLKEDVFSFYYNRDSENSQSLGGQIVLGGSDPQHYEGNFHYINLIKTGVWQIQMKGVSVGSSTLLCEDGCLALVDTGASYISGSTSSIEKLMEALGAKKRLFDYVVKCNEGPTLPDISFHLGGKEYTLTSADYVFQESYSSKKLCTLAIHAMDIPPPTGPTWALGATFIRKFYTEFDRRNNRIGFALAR"}, "source": "patent US4812442A", "about": "“Tripeptide renin inhibitors” (priority 1987, dated 1989)", "biological_target": "renin (Homo sapiens, UniProt P00797)", "assay": "Renin inhibition IC50 (methods of J. Med. Chem., 1985, 28, 1789-1790)", "type": "biochemical", "text": "The following examples are intended to be representative and not limiting. IC50 results were obtained according to the methods described in J. Med. Chem., 1985, 28, 1789-1790.", "data": [{"molecule": "CC(C)C[C@@H](CNCc1ccccc1)NC(=O)C[C@H](O)[C@H](CC(C)C)NC(=O)[C@H](Cc1ccccc1)NC(=O)[C@H](Cc1ccccc1)NC(=O)OC(C)(C)C", "values": [{"measurement": "IC50", "value": 2000, "unit": "nM"}]}]}
